# AlphaSeq binding of Ab-14 light chain variants to a spike HR2 peptide

Target peptide (SARS-CoV-2 spike, HR2 region): PDVDLGDISGINAS

Each scFv is VH, a 15-residue (Gly4Ser)3 linker, VL, as in the parent Ab-14, and differs from it in the CDRs of the light chain only.
VH: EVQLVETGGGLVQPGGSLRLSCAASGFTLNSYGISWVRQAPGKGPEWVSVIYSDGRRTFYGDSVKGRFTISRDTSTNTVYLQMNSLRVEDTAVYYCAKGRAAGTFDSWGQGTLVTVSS
VL: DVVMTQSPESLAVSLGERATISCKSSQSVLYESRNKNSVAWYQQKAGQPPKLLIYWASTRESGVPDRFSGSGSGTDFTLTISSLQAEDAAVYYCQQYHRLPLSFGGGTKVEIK

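The parent was found by panning a naive human phage display library on the peptide. Library AAYL50 holds single substitutions and randomly drawn double and triple substitutions in the CDRs. Affinity was read by AlphaSeq, a pooled yeast mating assay with surface-displayed partners. The frequency of each diploid, read from paired DNA barcodes, reflects how well the two displayed proteins bind. A regression on co-assayed BCL2-family reference pairs converts the normalised counts of each replicate to an apparent Kd. Each pool was mated in three replicate cultures.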

The parent's light chain CDRs are KSSQSVLYESRNKNSVA, WASTRES, QQYHRLPLS; each variant's own CDRs replace them letter for letter. Affinities are written as log10 Kd with Kd in nM; a lower number is a better binder. A pair that was not seen in that replicate is written "nd"; this usually means weak binding, but a binder can also be missed. For reference, the parent read 0.65 as the reference entry and 1.68 as a member of this library.

CDR-L1,CDR-L2,CDR-L3,"log10 Kd, replicates",signal with controls
KSSQSVLYESRNKNSVA,WASTRES,QKYVRLPES,nd / nd / nd,0/9
KSSRSVLYESRNWNSVA,WASTRES,QQYHRLPLY,3.34 / nd / 4.56,0/9
KSSQSVLYEARNKNSVA,WASTFQS,QQYHRLPLS,0.40 / 0.89 / 0.80,1/9 (3.73)
KSSQDVLYESRNKNSVA,WASTRES,CQYTRLPLS,3.87 / 3.20 / 3.51,3/9 (4.04)
KSSNSVLYESRNKNSVA,WASTRES,QQEHRLPLP,nd / nd / 4.55,2/9 (4.38)
KSSQIVLYEERNKNSVA,WAMTRES,QQYHRLPLS,nd / nd / 3.69,2/9 (3.26)
KSSMSGLYVSRNKNSVA,WASTRES,QQYHRLPLS,0.50 / 0.77 / 0.76,3/9 (4.54)
KSSQDPLYESRNKNSVA,WASTRES,QQYHRLPLN,nd / nd / nd,0/9
KSSQIVLYESRNKNSYA,WASTRES,QLYHRLPLS,6.11 / 4.43 / 5.76,5/9 (4.79)
KSSQSVLYESRNKNSVI,WASTRPS,QQYHHLPLS,nd / nd / 3.63,1/9 (3.82)
KSSQSVLYESRNKNSVA,PASTRYS,QQRHRLPLS,nd / nd / nd,2/9 (3.87)
KSSQAVLYESRNKNSVA,WASTRES,QQFHRLPLS,2.03 / 2.07 / 1.66,2/9 (4.59)
KSSQSVLVESRFKMSVA,WASTRES,QQYHRLPLS,4.55 / 2.36 / nd,1/9 (4.95)
KSSQSVLCESINKNSVA,WASWRES,QQYHRLPLS,nd / 2.41 / nd,0/9
KSSQSMLYESRNKNSVA,QAPTRES,QQYHRLPLS,6.36 / 4.23 / nd,5/9 (4.80)
KSSQSGLVESRNKNSVA,WASTRES,QQYHRLPAS,1.25 / 1.30 / 1.60,0/9
KSSQSVLYESRNKNSVA,WAFTYES,QQYHRLPFS,nd / 2.37 / nd,1/9 (2.80)
KSSQSVLYESRNKHSVA,WASTRES,QQRHLLPLS,0.80 / 1.37 / 1.03,2/9 (3.25)
KSSQSVLYEVRNKRSVA,WASTRES,QQAHRLPLS,nd / nd / 4.46,0/9
KSSQNVLYESRNKNSVA,WASTRES,QCYHRLPLS,1.51 / 1.44 / 1.40,1/9 (4.61)
KSSQSVLYESRNRNSVA,WASTRRS,QQYHRLPGS,nd / 3.83 / nd,0/9
GSSQSVLYESRNKNGVA,WASTRES,QQYHPLPLS,nd / nd / 4.40,4/9 (4.18)
KSSQSVLYESRIKNSVA,WASTRES,QQEHRPPLS,1.73 / 1.70 / 2.10,1/9 (3.86)
KSSHSVLPESRNKNSCA,WASTRES,QQYHRLPLS,nd / nd / nd,0/9
KSYQSVLYESRNKNNVA,WASTRES,HQYHRLPLS,nd / nd / nd,1/9 (3.31)
CSSQSYLYESRNKNSVA,WASTRES,QQEHRLPLS,4.58 / nd / nd,0/9
KSSQSVLYESRNKNSVA,QASLRES,QMYHRLPLS,1.36 / 1.48 / 1.72,0/9
KSSQSVLYESRYINSVA,WASTRES,QQYHRLFLS,3.98 / 3.17 / nd,4/9 (4.81)
KSSQQVLYESLNKNSVA,WASTRGS,QQYHRLPLS,2.27 / 2.41 / 2.30,4/9 (4.36)
KSSWSVLYESRNKNSEA,WASTHES,QQYHRLPLS,nd / nd / nd,0/9
KSSQSVLYEQRNKNSVH,WAETRES,QQYHRLPLS,nd / nd / 3.08,0/9
KSSQPVLYESRNKNSVA,WASCRNS,QQYHRLPLS,0.97 / 1.39 / 1.14,2/9 (3.36)
KSSQSCLYERRNKNSVA,WASTRES,QMYHRLPLS,2.72 / 2.17 / 3.58,1/9 (3.12)
KSSQSVLYESRNNNSVA,EISTRES,QQYHRLPLS,-0.04 / 0.27 / 0.32,5/9 (4.69)
KSSQSVLYEARAKNSVA,WACTRES,QQYHRLPLS,5.98 / 3.66 / 4.04,3/9 (4.29)
KSSQVVLYESRIKNSVA,WASTRES,QFYHRLPLS,3.31 / 2.91 / 3.79,0/9
KSSQSVLYESRNKNSVA,QASTRES,QQYHRLPLS,0.48 / 0.56 / 0.53,0/9
KSSDSVLYESRNYNSFA,WASTRES,QQYHRLPLS,nd / nd / nd,0/9

The 6 strongest on average among those seen in every replicate, once more:

CDR-L1,CDR-L2,CDR-L3,"log10 Kd, replicates",signal with controls
KSSQSVLYESRNNNSVA,EISTRES,QQYHRLPLS,-0.04 / 0.27 / 0.32,5/9 (4.69)
KSSQSVLYESRNKNSVA,QASTRES,QQYHRLPLS,0.48 / 0.56 / 0.53,0/9
KSSMSGLYVSRNKNSVA,WASTRES,QQYHRLPLS,0.50 / 0.77 / 0.76,3/9 (4.54)
KSSQSVLYEARNKNSVA,WASTFQS,QQYHRLPLS,0.40 / 0.89 / 0.80,1/9 (3.73)
KSSQSVLYESRNKHSVA,WASTRES,QQRHLLPLS,0.80 / 1.37 / 1.03,2/9 (3.25)
KSSQPVLYESRNKNSVA,WASCRNS,QQYHRLPLS,0.97 / 1.39 / 1.14,2/9 (3.36)

As a blank, each scFv also met three strains without target: over library AAYL50, 18% of these pairings were detected, typically at 4.19 and seldom below 2.99. For each scFv, signals with the empty controls are counted beside the result, with their mean in brackets.

The measurements come from Engelhart et al. 2022 (doi:10.1038/s41597-022-01779-4) through the FLAb antibody collection.